{
  "source": "paper PMC9738927",
  "about": "“A Newly Identified Monoterpenoid-Based Small Molecule Able to Support the Survival of Primary Cultured Dopamine Neurons and Alleviate MPTP-Induced Toxicity In Vivo” (Molecules, 2022)",
  "tested_on": "MPTP-lesioned C57BL/6 mice",
  "assay": "DA and DOPAC levels in midbrain and striatum by HPLC-ED after MPTP lesion",
  "format": "in vivo",
  "description": "Neurochemical analyses via HPLC-ED were conducted as described before. Microdissected samples of the striatum (ST) and midbrain were homogenized in 300 and 400 µL of cold 0.6 M HClO4, respectively, using a motor-driven grinder (Z359971, Sigma-Aldrich, USA) and the homogenate was spun for 15 min at 12,000 rpm (+4 °C). The pellet was diluted in 1 mL of 0.1 M NaCl and used for protein quantitation by Bradford (Bio Rad, USA) according to the manufacturer’s protocol. The clear supernatant was diluted twice with pure water and used for assay of DA and […] (DOPAC) by HPLC on Luna C18(2) column (5 μm particle size, L × I.D. 75 × 4.6 mm, Phenomenex, Torrance, CA, USA) with electrochemical detection (750 mV, DECADE II™ Electrochemical Detector; Antec, The Netherlands). The standard mixes containing 1, 2, and 3 ng of DA and DOPAC were repeatedly assayed throughout the entire procedure and used to plot the calibration curves for each substance. The areas of peaks were estimated using LabSolution LG/GC software version 5.54 (Shimadzu Corporation, Japan) and calibrated against the calibrated curves for corresponding standards. The contents of DA and DOPAC were expressed nanogram (ng) per milligram (mg) of protein assayed by Bradford.",
  "data": [
    {"smiles": "N[C@@H](Cc1ccc(O)c(O)c1)C(=O)O", "note": "[L-DOPA, reference compound]", "values": [
      {"measurement": "DOPAC level in ST", "result": "significantly increased"}
    ]}
  ]
}
